Consider 4 molecules from patent publication US9850216B2 (H. LEE MOFFITT CANCER CENTER AND RESEARCH INSTITUTE, INC., priority 2013, dated 2017).

By UniProt entry, the sequences of proteins in these tests, tags left out. Where a name states a change or a piece, a line headed by the entry shows the natural chain unless it says otherwise.
UniProt Q07912: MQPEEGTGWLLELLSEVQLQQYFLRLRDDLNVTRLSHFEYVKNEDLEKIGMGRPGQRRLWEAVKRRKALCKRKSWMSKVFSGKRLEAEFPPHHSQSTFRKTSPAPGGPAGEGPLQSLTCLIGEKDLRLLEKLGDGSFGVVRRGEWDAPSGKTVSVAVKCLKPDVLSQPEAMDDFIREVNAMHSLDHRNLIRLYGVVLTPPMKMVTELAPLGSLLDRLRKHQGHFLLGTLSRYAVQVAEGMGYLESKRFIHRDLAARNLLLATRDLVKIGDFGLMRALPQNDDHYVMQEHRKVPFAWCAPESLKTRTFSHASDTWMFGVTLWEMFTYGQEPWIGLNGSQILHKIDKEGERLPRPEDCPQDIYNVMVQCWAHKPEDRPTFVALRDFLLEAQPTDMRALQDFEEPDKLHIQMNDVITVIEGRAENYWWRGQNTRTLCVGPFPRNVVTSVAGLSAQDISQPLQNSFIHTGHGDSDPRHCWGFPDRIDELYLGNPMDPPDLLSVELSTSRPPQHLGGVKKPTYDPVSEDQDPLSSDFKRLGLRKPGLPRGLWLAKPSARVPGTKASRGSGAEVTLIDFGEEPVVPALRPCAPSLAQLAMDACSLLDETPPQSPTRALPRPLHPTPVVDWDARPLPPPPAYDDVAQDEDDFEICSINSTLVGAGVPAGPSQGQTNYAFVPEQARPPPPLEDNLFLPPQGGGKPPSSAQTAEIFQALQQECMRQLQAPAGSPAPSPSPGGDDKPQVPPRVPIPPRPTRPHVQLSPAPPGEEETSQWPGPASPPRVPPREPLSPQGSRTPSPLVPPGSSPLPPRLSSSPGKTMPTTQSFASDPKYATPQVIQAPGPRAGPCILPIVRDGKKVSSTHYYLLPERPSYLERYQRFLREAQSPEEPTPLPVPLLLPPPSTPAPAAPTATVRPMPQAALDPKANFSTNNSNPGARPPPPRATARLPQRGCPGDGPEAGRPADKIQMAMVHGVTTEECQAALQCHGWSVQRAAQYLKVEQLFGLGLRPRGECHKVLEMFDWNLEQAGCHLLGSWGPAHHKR

Where “and” joins values, the source holds several entries; their conditions need not be identical. Equal values may be shown once. Where a name gives a salt, the structure may show the parent alone. Read-outs that look alike come from different tables or passages of the source.

One assay has as its target ACK1 (Homo sapiens, UniProt Q07912). In words: ACK1 ELISA: phosphorylation of AKT-derived peptide. The assay is classed as biochemical. A general note: An ELISA detects its analyte on a solid surface through an enzyme-linked reagent.
In a further assay the test system is AR. Briefly: AR protein levels in androgen-deprived prostate cancer cells, immunoblotting. The assay is classed as cell-based, human. The note with it: immunoblotting (FIG. 2).

With `Brc1cnc(Nc2ccc(N3CCNCC3)cc2)nc1NCC1CCCO1` (centres unmarked) [Compound 9i], the inhibition (in general, the share of the control response that was lost under treatment) at 10 µM at ACK1 (read-out: % Inhibition @ 10 μM (ELISA), 10 μM, Table 2, library 9) is 85.5 ± 0.7%.

Turning to `CNC(=O)c1ccc(N2C(=S)N(c3ccc(C#N)c(C(F)(F)F)c3)C(=O)C2(C)C)cc1F` [Enzalutamide], in the assay on AR, the AR protein levels entry is on record as “little effect on AR expression”.

For `COc1cc(N2CCC(N3CCN(C)CC3)CC2)ccc1Nc1ncc(Cl)c(Nc2ccccc2S(=O)(=O)C(C)C)n1` [TAE684, reference compound], the % Inhibition (commonly the share of the control response that was lost under treatment) at 10 μM (ELISA) at ACK1 (Table 1, replicate values listed) is 92% and 98% and 99% (2×).

For the molecule `Brc1cnc(Nc2ccc(N3CCNCC3)cc2)nc1NCC1CCCO1` (centres unmarked) [YL9-167, 5-Bromo-N2-(4-(piperazin-1-yl)phenyl)-N4-((tetrahydrofuran-2-yl)methyl)pyrimidine-2,4-diamine TFA salt], the “% Inhibition at 10 μM (ELISA)” value at ACK1 (Table 1, replicate values listed, TFA salt) was 85%. For the same molecule, the inhibition at 10 µM on ACK1 (read-out: % Inhibition at 10 μM (ELISA), 10 μM, Table 1, replicate values listed) was found to be 86%.
